This is an account of results in publication PMC4682846 (PLoS ONE, 2015).

The assay deals with T1, fumarase D (FumD) (Escherichia coli, UniProt Q8X999).
T1 construct: gene fumA

Structures are written as SMILES.

For the compound `O=C(O)/C=C/C(=O)O` [Fumarate], the Km (usually the substrate concentration at which the rate is half of its maximum) was determined as 900 ± 100 µM.
